The source of these data is ChEMBL document CHEMBL1148506, “Structure-activity relationships of new 1H-imidazo[4,5-c]quinolin-4-amine derivatives as allosteric enhancers of the A3 adenosine receptor” (J Med Chem, 2006).

Chains of the proteins cited; added tags and fusions are not shown.
UniProt P0DMS8, whole entry: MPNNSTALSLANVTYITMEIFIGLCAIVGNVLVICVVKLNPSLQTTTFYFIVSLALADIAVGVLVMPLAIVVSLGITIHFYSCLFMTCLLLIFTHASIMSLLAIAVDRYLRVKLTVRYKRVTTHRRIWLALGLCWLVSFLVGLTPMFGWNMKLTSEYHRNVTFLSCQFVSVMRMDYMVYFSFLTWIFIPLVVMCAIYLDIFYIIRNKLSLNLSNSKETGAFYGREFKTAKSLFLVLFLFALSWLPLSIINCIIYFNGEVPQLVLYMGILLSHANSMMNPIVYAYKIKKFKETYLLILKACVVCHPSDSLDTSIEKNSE

This test has as its target Adenosine receptor A3 (Homo sapiens) (UniProt P0DMS8). Nature of the test: Decrease in dissociation of [125I]I-AB-MECA from human adenosine A3 receptor in CHO membrane at 10 uM relative to control after 30 min. Also on record: scale not given: the % may be the effect or the level left. The class given is cell membranes. The gist of the method:
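Membranes (20 μg) preloaded with 0.5 nM [125I]I-AB-MECA, 60 min at 25°C, in 50 mM Tris-HCl pH 8.0 with 10 mM MgCl2 and 1 mM EDTA. Dissociation started with 3 μM Cl-IB-MECA, with or without 10 μM modulator. Binding read by rapid filtration at 30 min; reported as % decrease in dissociation versus control (100%).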

`Clc1ccc(Nc2nc3ccccc3c3[nH]c(C4CCC4)nc23)cc1Cl` had an Activity of 116%.
